# Tested on: ATPase
# Assay: Butyric acid inhibition of ATPase activity, FBB-adapted mutant vs wild type
structure (smiles),measurement,value
CCCC(=O)O [butyric acid],"increase in the inhibition rate constant of ATPase, mutant vs wild type",4 fold

# From patent publication US20110151529A1, “METHODS AND PROCESSES FOR PRODUCING ORGANIC ACIDS” (THE OHIO STATE UNIVERSITY, priority 2008, published 2011)
